For this assay, the target named is SHP2 (Homo sapiens (Human), UniProt Q06124). Put plainly: SHP2 Allosteric Inhibition Assay (DiFMUP prompt fluorescence). It counts as biochemical.
Setting [1] is: 0.5 nM SHP2 activated with 0.5 μM peptide IRS1_pY1172(dPEG8)pY1222, substrate DiFMUP, read-out: IC50.

Amino acid sequences for entries named in this document (tags omitted).
UniProt Q06124, whole entry: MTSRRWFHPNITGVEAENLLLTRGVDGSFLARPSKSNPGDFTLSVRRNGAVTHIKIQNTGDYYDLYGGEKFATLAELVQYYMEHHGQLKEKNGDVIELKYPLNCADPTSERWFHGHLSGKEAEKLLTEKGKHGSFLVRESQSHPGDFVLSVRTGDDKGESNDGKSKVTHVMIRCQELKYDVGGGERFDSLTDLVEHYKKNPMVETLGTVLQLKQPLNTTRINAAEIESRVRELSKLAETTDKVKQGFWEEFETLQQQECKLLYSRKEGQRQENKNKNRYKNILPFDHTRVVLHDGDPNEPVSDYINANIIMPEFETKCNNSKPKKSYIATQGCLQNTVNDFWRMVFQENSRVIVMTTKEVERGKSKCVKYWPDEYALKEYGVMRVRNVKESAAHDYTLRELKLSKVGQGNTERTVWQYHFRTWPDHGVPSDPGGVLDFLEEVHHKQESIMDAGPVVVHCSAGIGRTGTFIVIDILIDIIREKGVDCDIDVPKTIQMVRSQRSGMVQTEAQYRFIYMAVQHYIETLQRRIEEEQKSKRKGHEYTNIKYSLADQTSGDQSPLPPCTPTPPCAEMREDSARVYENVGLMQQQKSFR

Read-outs that look alike come from different tables or passages of the source.

A word on the IC50: it is the point on the concentration scale where inhibition reaches its midpoint. For `CC1(N)CCN(c2cnc(-c3cccc(Cl)c3Cl)cn2)CC1`, the IC50 (read-out: SHP2 IC50) is 5700 nM. For `Cc1cccc(-c2cnc(N3CCC(C)(N)CC3)nc2N)c1Cl` [Example 2], the IC50 (read-out: IC50) came to 858 nM. On to `CC1(N)CCN(c2ncc(-c3ccc(Cl)s3)c(N)n2)CC1` [Example 3], for which, under setting [1], the half-maximal inhibitory concentration (IC50) turned out to be 950 nM. On to `Cc1ccc(-c2cnc(N3CCC(C)(N)CC3)nc2N)s1` [Example 4], for which the IC50 under setting [1] is 974 nM.

In the case of `COc1cc(Cl)c(Cl)c(-c2cnc(N3CCC(C)(N)CC3)nc2N)c1` [Example 5], the IC50 (read-out: IC50) was 2860 nM. `CC1(N)CCN(c2ncc(-c3cc(O)cc(Cl)c3Cl)c(N)n2)CC1` [Example 6, 3-(4-amino-2-(4-amino-4-methylpiperidin-1-yl)pyrimidin-5-yl)-4,5-dichlorophenol] registered an IC50 of 225 nM. Regarding `NCC1CCN(c2cnc(-c3cccc(Cl)c3Cl)c(N)n2)CC1` [Example 9], where the note is “read-out: IC50”, the 50% inhibitory concentration (IC50) is 358 nM. On the same count and under the same terms, next, `NC[C@H]1CCN(c2cnc(-c3cccc(Cl)c3Cl)c(N)n2)C1` [Example 14]: 68 nM. In turn, `CC1(N)CCN(c2nc(N)c(-c3cccc(Cl)c3Cl)nc2Br)CC1` [Example 22, 6-(4-amino-4-methylpiperidin-1-yl)-5-bromo-3-(2,3-dichlorophenyl)pyrazin-2-amine] returned a half-maximal inhibitory concentration (IC50) of 169 nM.

`CC1(N)CCN(c2nc(N)c(-c3cccc(Cl)c3Cl)nc2Cl)CC1` [Example 23, 6-(4-amino-4-methylpiperidin-1-yl)-5-chloro-3-(2,3-dichlorophenyl)pyrazin-2-amine]: inhibition was half-maximal at 392 nM (IC50). Still for that read-out and setting: the figure for `Cc1nc(-c2cccc(Cl)c2Cl)c(N)nc1N1CCC(C)(N)CC1` [Example 24, 6-(4-amino-4-methylpiperidin-1-yl)-3-(2,3-dichlorophenyl)-5-methylpyrazin-2-amine] is 222 nM.

The compound `CC1(N)CCN(c2nc(N)c(-c3cccc(Cl)c3Cl)nc2C#N)CC1` [Example 25, 5-amino-3-(4-amino-4-methylpiperidin-1-yl)-6-(2,3-dichlorophenyl)pyrazine-2-carbonitrile] displayed a concentration for half-maximal inhibition (IC50) of 315 nM.

For the compound `CC1(N)CCN(c2nc(N)c(-c3cccc(Cl)c3Cl)nc2C(N)=O)CC1` [Example 26, 5-amino-3-(4-amino-4-methylpiperidin-1-yl)-6-(2,3-dichlorophenyl)pyrazine-2-carboxamide], the midpoint of inhibition, the IC50, lay at 271 nM. As to `C[C@@H]1CN(c2cnc(-c3cccc(Cl)c3Cl)c(N)n2)C[C@H](C)N1` [Example 27, 3-(2,3-dichlorophenyl)-6-((3S,5R)-3,5-dimethylpiperazin-1-yl)pyrazin-2-amine], half-maximal inhibition (IC50) required 570 nM. With `CC1(N)CCN(c2cnc(C3=CCCCC3)c(N)n2)CC1` [Example 29], the half-inhibitory concentration (IC50) under setting [1] turned out to be 2580 nM. `CC1(N)CCN(c2nnc(-c3cccc(Cl)c3Cl)c(N)n2)CC1` [Example 30, 3-(4-amino-4-methylpiperidin-1-yl)-6-(2,3-dichlorophenyl)-1,2,4-triazin-5-amine] registered an IC50 of 194 nM.

The record behind these values is patent US10093646B2, “1-pyridazin-/triazin-3-yl-piper(-azine)/idine/pyrolidine derivatives and compositions thereof for inhibiting the activity of SHP2” (Novartis AG, priority 2014, dated 2018).
